“And” between values parts separate entries of the source, which are not always exact repeats. Equal entries are not always repeated. Where two headings read alike, the source gives them in different places.
Key:
[1] = tested on: collagen-induced arthritis (CIA) in mice; type: in vivo, DBA/1 mice; set-up: key to Average clinical score: score 0-4 per limb, max 16 per animal; conditions: 15 mg/kg p.o. bid
[2] = Pharmacokinetics (PK) test in mice; type: in vivo, mice (C57BL/6); conditions: male C57BL/6 mice; iv 2 mg/kg, intragastric 15 mg/kg

O=C(Nc1nc2cccc(C3CCC4(CC3)CCN(C(=O)[C@@H]3CC3(F)F)CC4)n2n1)C1CC1
Inhibition rate (clinical score AUC vs blank group) [1]: 48.6%
AUC ± SEM of clinical score (AUC of incidence) ([1]; administration period): 26.63 ± 4.57
Average clinical score ([1]; day 21): 0.00 ± 0.00
Incidence of arthritis ([1]; day 21): 0%
Average clinical score ([1]; day 24): 0.00 ± 0.00
Incidence of arthritis ([1]; day 24): 0%
Average clinical score ([1]; day 27): 0.50 ± 0.19
Incidence of arthritis ([1]; day 27): 50%
Average clinical score ([1]; day 28): 0.63 ± 0.26
Incidence of arthritis ([1]; day 28): 50%
Average clinical score ([1]; day 29): 0.75 ± 0.25
Incidence of arthritis ([1]; day 29): 63%
Average clinical score ([1]; day 31): 1.00 ± 0.33
Incidence of arthritis ([1]; day 31): 75%
Average clinical score ([1]; day 34): 1.63 ± 0.38
Incidence of arthritis ([1]; day 34): 88%
Average clinical score ([1]; day 36): 2.50 ± 0.46
Incidence of arthritis ([1]; day 36): 100%
Average clinical score ([1]; day 38): 3.13 ± 0.58
Incidence of arthritis ([1]; day 38): 100%
Average clinical score ([1]; day 41): 3.0 and 3.00 ± 0.60
Incidence of arthritis ([1]; day 41): 100%
AUC0-inf [2]: 17.969 µM·h
